# Data published in patent publication US7435837B2, “Dihydrobenzofuranyl alkanamine derivatives and methods for using same” (Wyeth, priority 2003, dated 2008).
# Chains of the proteins cited; added tags and fusions are not shown. Residues count along the entry.
# UniProt P28335, 33-458: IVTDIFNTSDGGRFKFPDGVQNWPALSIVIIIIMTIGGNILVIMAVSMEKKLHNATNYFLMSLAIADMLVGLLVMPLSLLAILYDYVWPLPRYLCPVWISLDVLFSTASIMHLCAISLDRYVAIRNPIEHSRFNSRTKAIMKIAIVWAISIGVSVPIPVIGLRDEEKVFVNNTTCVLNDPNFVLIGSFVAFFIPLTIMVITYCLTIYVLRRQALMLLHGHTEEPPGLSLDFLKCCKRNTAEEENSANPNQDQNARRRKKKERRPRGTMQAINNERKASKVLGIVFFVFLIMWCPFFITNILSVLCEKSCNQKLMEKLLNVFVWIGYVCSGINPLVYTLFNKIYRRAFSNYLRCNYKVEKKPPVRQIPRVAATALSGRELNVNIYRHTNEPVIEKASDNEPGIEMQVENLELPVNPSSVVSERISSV
# Key:
# [1] = molecular target: human 5-HT2C receptor (Homo sapiens, UniProt P28335); conditions: reference compounds; calcium mobilization;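 further: Fluo-3-AM fluorescence read on FLIPR every 1 s, agonist added after 10 baseline reads, response taken as peak minus lowest raw fluorescence count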
# [2] = molecular target: T1, human 5-hydroxytryptamine-2C (h5-HT2C) receptor (Homo sapiens, UniProt P28335); experiment: [125I]DOI binding to membranes of CHO cells expressing the human 5-HT2C receptor; conditions: [125I]DOI radioligand, CHO cell membranes, room temperature 60 min; read-out: 5-HT2C Affinity Ki
# T1 construct: expressed in transfected cells; host or cells: CHO (Chinese Hamster Ovary) cells; membranes
compound,measurement,setting,value
"1-(2,5-dimethoxy-4-iodophenyl)isopropylamine [DOI, reference compound]",EC50,[1],0.5 nM
"Cc1cccc(-c2cccc3c2OC(CN)C3)c1C (racemic) [Example 154, (±)-1-[7-(2,3-dimethylphenyl)-2,3-dihydro-1-benzofuran-2-yl]methanamine]",Ki,[2],6.2 nM
